These results are taken from patent US20180362585A1 (Bicycle, published 2018).

Sequences of proteins named here, by UniProt entry; tags and fusion partners are left off. Residues count along the entry.
UniProt P03952, 20-638 limits assumed: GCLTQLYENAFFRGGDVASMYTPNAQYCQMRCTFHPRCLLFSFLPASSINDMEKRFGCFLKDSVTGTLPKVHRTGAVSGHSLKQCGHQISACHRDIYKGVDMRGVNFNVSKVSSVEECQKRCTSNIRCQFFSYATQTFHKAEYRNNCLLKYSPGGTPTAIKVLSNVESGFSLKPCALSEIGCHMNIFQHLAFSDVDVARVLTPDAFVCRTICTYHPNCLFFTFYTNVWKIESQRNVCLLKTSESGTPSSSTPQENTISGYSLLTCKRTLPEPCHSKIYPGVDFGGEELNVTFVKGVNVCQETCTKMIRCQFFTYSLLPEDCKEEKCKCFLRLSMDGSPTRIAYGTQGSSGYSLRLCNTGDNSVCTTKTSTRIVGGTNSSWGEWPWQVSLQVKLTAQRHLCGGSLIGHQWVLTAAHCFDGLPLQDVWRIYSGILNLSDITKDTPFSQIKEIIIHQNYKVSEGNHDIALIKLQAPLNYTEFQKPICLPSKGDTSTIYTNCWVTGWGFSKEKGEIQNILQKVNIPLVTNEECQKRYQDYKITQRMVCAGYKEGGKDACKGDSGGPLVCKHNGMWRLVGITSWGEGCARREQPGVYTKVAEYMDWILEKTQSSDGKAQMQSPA
UniProt P14272, 391-638 limits assumed: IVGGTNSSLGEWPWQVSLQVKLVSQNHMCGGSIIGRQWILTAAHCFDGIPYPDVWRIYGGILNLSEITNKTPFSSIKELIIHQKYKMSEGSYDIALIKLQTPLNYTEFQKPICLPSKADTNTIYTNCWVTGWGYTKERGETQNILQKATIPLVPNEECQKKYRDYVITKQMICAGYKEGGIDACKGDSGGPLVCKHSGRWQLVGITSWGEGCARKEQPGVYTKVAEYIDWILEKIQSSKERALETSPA

The target of experiment [1] is T1, human plasma Kallikrein (human, UniProt P03952 20-638).
T1 construct: also called hPK; human PK
Put plainly: enzyme inhibition. As to the method:
(§1) Functional enzyme assays were conducted in 10 mM Tris HCl, 150 mM NaCl, 10 mM MgCl2, 1 mM CaCl₂) and 1 mg/mL BSA (all Sigma UK) pH7.4 at 25° C. in solid black 96 well plates. […] Release of AMC was measured using a Pherastar FS (BMG Labtech), excitation 360 nm, emission 460 nm. The rate of the linear phase of the reaction, typically 5 to 45 minutes, was calculated in MARS data analysis software (BMG labtech). The rate was then used to calculate the IC50 and Ki in Prism (GraphPad).

For experiment [2], the target named is T2, rat plasma Kallikrein (rat, UniProt P14272 391-638, limits assumed).
T2 construct: domain: catalytic domain; also called rPK; rat PK
Put plainly: enzyme inhibition. As to the method:
as §1

B1: 1E6 (peptide)
peptide: ACAWPARCLTTSLCG
modifications: 3 Cys on TMB
What is called Ki is the dissociation constant of the complex between target and ligand, obtained from inhibition or displacement. A higher Ki goes with a looser hold on the target. In experiment [1], B1 gave an inhibition constant Ki of 0.16 nM.

B2: 06-143 (peptide)
peptide: ACFPSHDCDGRRMCA
modifications: 3 Cys on TMB
In experiment [1], B2 came in with a Ki of 1.27 nM.

B3: 06-56 (peptide)
peptide: ACGGPQNCRTWTTCA
modifications: 3 Cys on TMB
Molecule B3 yielded a Ki in experiment [1] of 2.1 nM.

B4: 06-34 (peptide)
peptide: ACRWPARCVHQDLCA
modifications: 3 Cys on TMB
Usually IC50 stands for the concentration that gives 50% inhibition. For the molecule B4, in experiment [1], the IC50 worked out at 0.19 nM and the Ki turned out to be 0.128 nM. The molecule further had an IC50 in experiment [2] of 7.38 nM.
